{"source": "paper PMC10141604", "about": "“Small-Molecule Inhibition of Androgen Receptor Dimerization as a Strategy against Prostate Cancer” (ACS Central Science, 2023)", "system": "endogenous PSA and AR in LNCaP cells", "test": "Western blot of PSA and AR in LNCaP cells", "assay_type": "cell-based", "settings": "LNCaP, 0.1, 1, 10 μM, 10 nM DHT, 48 h"}
{"compound": "CNC(=O)c1ccc(N2C(=S)N(c3ccc(C#N)c(C(F)(F)F)c3)C(=O)C2(C)C)cc1F", "note": "[Enz, enzalutamide, reference compound]", "values": [{"measurement": "endogenous PSA production (Western blot)", "value": "remarkably inhibited"}]}
